Assay results from US4840949A, “Oxadiazole-alkyl-purine derivatives useful as antitussive agents” (Chinoin Gyogyszer Es Vegyeszeti Termekek Gyara Rt., priority 1986, dated 1989).

Experiment: in vivo
Settings: rat, ip

Cc1nc(Cn2cnc3c2c(=O)n(C)c(=O)n3C)no1 [Compound 2, 3,7-dihydro-1,3-dimethyl-7-[(5-methyl-1,2,4-oxadiazole-3-yl)-methyl]-1H--purine-2,6-dione, reference compound]
LD50: 530 mg/kg
